## Antibody variant affinities, Ab-14 light chain, assay B

Binding partner: SARS-CoV-2 spike HR2 peptide, sequence PDVDLGDISGINAS.

Ab-14 is the parent antibody, in scFv form: VH, then three GGGGS repeats, then VL. The heavy chain is unchanged in all variants.
VH: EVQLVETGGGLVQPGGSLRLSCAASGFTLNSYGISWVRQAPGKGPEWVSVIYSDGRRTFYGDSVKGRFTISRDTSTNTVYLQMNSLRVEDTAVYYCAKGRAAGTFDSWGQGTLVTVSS
VL: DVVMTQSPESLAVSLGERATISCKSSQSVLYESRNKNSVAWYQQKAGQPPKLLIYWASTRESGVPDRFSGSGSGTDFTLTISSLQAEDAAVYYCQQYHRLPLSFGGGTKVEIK

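Phage display of a naive human antibody library on the peptide gave the parent. These sequences belong to a second round, designed from the earlier measurements on random variants of the parent. Several design methods are mixed in this list. The assay is AlphaSeq: two haploid yeast populations carry antibody and antigen on their surface. Binding brings cells together so that they mate, and sequencing counts the barcode pairs among the diploids. The ratio of observed to expected reads was calibrated, replicate by replicate, on BCL2-family standards whose Kd was known from biolayer interferometry. There are six technical replicates.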

Each variant is given by its three light chain CDRs, as the data file delimits them; those of the parent are KSSQSVLYESRNKNSVA, WASTRES, QQYHRLPLS.
Variants here have more than six changes.
Affinities are written as log10 Kd with Kd in nM; a lower number is a better binder.
"nd" marks a missing value. The strain was present, yet no cells mated with the target were sequenced in that replicate, which points to weak or no binding.
Nonspecific signal, from three strains lacking the peptide, appeared in 4% of pairings of all light chain designs, centred on 2.64 (5% of these signals below 1.59); values are not corrected for it.
Values of this round are not directly comparable with the first-round values of the same sequences.
The authors' rule: three or more of the six replicates give a measured affinity, fewer mean a poor binder.

CDR-L1	CDR-L2	CDR-L3	log10 Kd, replicates
KLRQSMSYEDRNKNSVA	NASQRCS	QQYHRLPLS	0.08 / -0.02 / -0.06 / -0.13 / -0.02 / 0.21
KLMWSMQYESRNQNSVA	HASYRES	QQYHRLPLS	1.08 / 0.46 / 0.61 / 2.22 / 0.66 / 1.53
KVSQGELQESRNANNVA	NASQREN	QQYHRLPLS	-0.46 / -0.67 / -0.57 / -0.68 / -0.68 / -0.68
KLGYPSYGEVNGQHNIA	EMDQLTF	QQYSHLPLS	0.80 / 0.82 / 0.61 / 0.60 / 0.74 / 0.67
KLSIMHQVESINKSNVA	EMVTRES	QQYDRLPLS	2.24 / 2.15 / 1.69 / 2.67 / 1.94 / 2.20
KLYQVGLGSQKVDRNIA	ETSTRCT	QSYQRLPLS	0.59 / 1.10 / 0.60 / 1.14 / 1.26 / 0.95
TIGVTLMQGIRNRSNVA	EVSERLN	QQYDRLPLA	1.41 / 1.75 / 3.19 / 0.88 / 0.73 / 0.70
KVSPSWWYESRNKNNVA	HASTRES	QQYHRLPLH	0.56 / 0.15 / 0.51 / 0.27 / 0.45 / 0.65
NMHNMCYQYENYGNSIA	QAQLREN	QQYYRLPFT	0.93 / 0.37 / 0.33 / 0.11 / 0.23 / 0.32
MISNVMNTLTRYGNNVA	DLENRED	QQYFRLPLS	1.51 / 0.64 / 1.02 / 0.74 / 1.68 / 1.48
KLVNFMNRGTHHTSNIA	DAQQRLD	QQYARLPLA	1.11 / 1.09 / 0.92 / 0.88 / 1.34 / 1.06
KAQDGELYESRDWNSVA	DASKRLS	QQYHRLPLS	0.27 / 0.20 / 0.16 / -0.06 / 0.14 / 0.02
MISQLMNMGTFAINSVA	QASIRNQ	QQYDRLPLA	nd / nd / nd / nd / nd / 2.10
KLSMITGHMSMSRNNVA	EMVTREN	QQYDRLPLS	nd / 0.35 / 1.06 / 0.16 / 0.60 / 1.42
HLTEQNFDGERRAYNVA	AGVMHSY	QQYHRLPLM	1.50 / 1.38 / 1.06 / 1.11 / 2.01 / 1.21
IVSQLMLWGMKARNSIA	EAVTRLN	QQYDRLPLM	nd / nd / nd / nd / nd / nd
SLMDNPWVEDTYRKAIA	DINVRAD	QQYHRLPLS	0.33 / 0.51 / 0.36 / 0.41 / 0.49 / 0.56
KASQSQDYESRNSKSVA	DASTRLS	QQYHRLPLS	0.07 / -0.27 / -0.17 / -0.35 / -0.27 / -0.22
IVSQLMLWGLHAKNSIA	EAQMRLN	QQYDRLPLE	nd / nd / nd / nd / nd / nd
KLDPSDLGESRNKNAVA	QASQREI	QQYHRLPLS	-0.16 / -0.34 / -0.32 / -0.41 / -0.37 / -0.12
QFHSTMAGDQRNVHSIA	NATAAVP	QYYFRLPLS	0.98 / 0.57 / 0.89 / 0.52 / 1.09 / 1.45
MLSQMTGLGMKVSNSVA	QASMRFN	QQYHRLPLI	1.74 / 2.25 / nd / 2.07 / 3.18 / 1.69
TLGGAMLTQMHNKNSVA	DLTTRGN	QQYHRLPLS	0.65 / 0.59 / 0.31 / 0.54 / 0.46 / 0.63
KLLWSVLLWSRNWNSVA	NASTREL	QQYHRLPLS	nd / 1.56 / 1.49 / 3.21 / 2.09 / 1.82
TISQMTALFSQTINNVA	EVSTREN	QQYDRLPLI	1.69 / 1.35 / 1.26 / 1.20 / 1.45 / 1.23
QLDWYNTTATASANNVA	DVAQRAN	QQYMRLPLM	0.02 / 0.01 / -0.34 / -0.51 / -0.17 / 0.06
HVSMLTLGGLKERNSVA	QMTTREN	QQYDRLPLA	1.09 / 1.04 / 0.66 / 1.05 / 1.14 / 1.14
KASQSEPYEDRNFNSVA	NASYRCS	QQYHRLPLS	1.07 / 0.65 / 0.49 / 0.43 / 0.52 / 0.76
TLSHSTDLEEVHKNSIA	DLMTRES	QQYHRLPLS	1.63 / 1.26 / 2.09 / 2.52 / 1.44 / 3.02
NFSYALFAEDAKKKSIA	ENTVTEY	QQYAKLPLT	1.19 / 1.15 / 0.65 / 0.39 / 0.67 / 1.08
KMFQSEGMESRNVNSVA	HASQRLD	QQYHRLPLS	0.01 / -0.01 / -0.07 / -0.14 / 0.09 / 0.08
SLYENYANPSQHTNSVA	DANQMMR	QHYNRLPLA	1.12 / 0.40 / 0.77 / -0.12 / 1.47 / 0.20
KVDQLVDMESRNKNAVA	SASTRES	QQYHRLPLS	0.70 / 0.33 / 0.35 / 0.39 / 0.58 / 0.50
HLSMLTHVESGVKNNVA	QMETREE	QQYDRLPLS	0.81 / 1.09 / 1.22 / 0.73 / 1.63 / 0.97
MISQLFMYGSRAYNSVA	QASTRES	QQYDRLPLI	3.52 / 1.98 / 0.89 / 1.21 / 2.08 / 2.70
QIAGKLQHGGNQGDNVA	QGVETKN	QQYYTLPLT	nd / nd / nd / nd / nd / nd
KLSPSEQYLDRNCNAVA	QASQRES	QQYHRLPLS	0.29 / 0.18 / 0.01 / -0.01 / 0.02 / 0.12
TISQSAVMESHNKNNVA	DLNLRGS	QQYDRLPLS	0.36 / 0.55 / 0.83 / 0.31 / 0.00 / 0.43
GILSQMDGPTEYKENIA	NGNERLP	QQYQRLPLT	0.48 / 0.49 / 0.54 / 0.20 / 0.63 / 0.52
HIGGVLNGENVKGRSVA	HMNTRVD	QQYDRLPLS	1.09 / 1.00 / 1.04 / 1.29 / 1.44 / 1.41
KVSQQNLYEQRNFNNVA	NASYRES	QQYHRLPLS	0.17 / -0.11 / -0.06 / -0.04 / -0.15 / -0.04
KVSGSQLYESRNSNSVA	NASNRMS	QQYHRLPLS	0.50 / 0.31 / 0.40 / 0.12 / 0.27 / 0.23

Picked from the list: the 3 lowest averages where every replicate gave a value.

CDR-L1,CDR-L2,CDR-L3,"log10 Kd, replicates"
KVSQGELQESRNANNVA,NASQREN,QQYHRLPLS,-0.46 / -0.67 / -0.57 / -0.68 / -0.68 / -0.68
KLDPSDLGESRNKNAVA,QASQREI,QQYHRLPLS,-0.16 / -0.34 / -0.32 / -0.41 / -0.37 / -0.12
KASQSQDYESRNSKSVA,DASTRLS,QQYHRLPLS,0.07 / -0.27 / -0.17 / -0.35 / -0.27 / -0.22

Values reported by Li et al. 2023, doi:10.1038/s41467-023-39022-2 (FLAb copy).